Laboratory results reported in paper PMC5859971 (Genes & Development, 2018).

How the values were obtained:
HCT116-PHF5A^WT = assay: CellTiter-Glo viability assay, HCT116-PHF5A^WT; type: cell-based, human
Method: To further validate the pose of the compound, we analyzed the activity of several related chemical probes using the SPA with the purified protein complex ([Teng et al. 2017]). The SPA is formatted as a competition assay in which the purified protein complex is captured on a bead containing scintillant, incubated with test compounds over a dose response, and then competed off with a fixed concentration of ^3H-Plad compound. IC50 curves are then measured from the resulting light emitted from the bead (Table 1; Supplemental Fig. S4). In addition, we tested the probes in viability assays in two engineered cell lines: HCT116-PHF5A^WT and the sensitization line HCT116-PHF5A^R38C (Table 1; Supplemental Fig. S5). […]
Parental HCT116 cells were obtained from American Type Culture Collection and cultured in RPMI 1640 medium supplemented with 10% fetal bovine serum. […] Dose response was measured in 11-point serial dilutions with a top dose of 10 µM. […] Seventy-two hours after dosing, CellTiter-Glo reagent was added, incubated, and assayed on an EnVision multilabel reader (PerkinElmer). Luminescence values from each treatment were normalized to the average value of the respective DMSO control. The dose response curve plots were generated in GraphPad Prism, and GI50 values were calculated from nonlinear regression analysis. […]

[1] = tested on: splicing of Ad2.2 pre-mRNA substrate; assay: In vitro splicing (IVS) assay, Ad2.2 substrate, HeLa S3 nuclear extracts, RT-qPCR; type: biochemical, human; details: Ad2.1 and Ad2.2 substrates compared
Source text: A substrate competitive mechanism of action (MOA) would predict that weaker pre-mRNA substrates would be easier to inhibit than stronger substrates. To date, it has not been possible to evaluate substrate competition using traditional steady-state conditions because splicing reactions are thought to be single-turnover events in vitro, and therefore it is not possible to measure a KM for the pre-mRNA. […] Specifically, we engineered the strong in vitro splicing substrate Ad2.1 by enhancing the U2 snRNP base-pairing around the BPA found in the Ad2 substrate. We then engineered a weaker substrate, Ad2.2, by adding a decoy BPS lacking an extrahelical adenosine (Ad2.2) (Fig. 5A; Supplemental Vector NTI files; [Corrionero et al. 2011]). […] We then evaluated E7107 and several chemical probes to better understand their mechanism.
Figure 5. […] (A) Base-pairing logic for IVS substrates. (BPRS) Branch point recognition sequence in U2 snRNA; (BPS) the BPS in the pre-mRNA. The Ad2 gene BPS sequence (UACUUAU) was modified (UACUAAU) to strengthen the U2 base-pairing interactions flanking the BPA, leading to the Ad2.1 substrate (BPA in red). The Ad2.2 sequence has the same BPS as Ad2 but also contains a 5′ decoy BPS sequence (lacking an extrahelical adenine) that can base-pair with the BPRS. […]

SMILES: CCC(O)C(C)C1OC1CC(C)(O)C=CC=C(C)C1OC(=O)CC(O)CCC(C)(O)C(OC(C)=O)C=CC1C (centres unmarked) [Plad D]
- loss of potency relative to E7107 in viability assays (HCT116-PHF5A^WT): ~10 fold
- inhibition of strong and weak IVS substrates [1]: inhibit both the strong and weak substrates equally well
